System: CRS in SCID or humanized mice with Raji-luc tumor cells
Assay: Mouse model of Raji-luc tumor with CAR-T induced CRS (Example 2)
Details: IP, BID for 7 days, start 5 hours prior to CAR-T cell transfer

## CC#CC[C@H](C)[C@H](O)/C=C/[C@@H]1[C@H]2c3cccc(CCCC(=O)[O-])c3O[C@H]2C[C@H]1O.[Na+] [CTO1681, (+)-[1R, 2R, 3aS, 8bS]-2,3,3a,8b-tetrahydro-2-hydroxy-1-[(E)-(3S,4S)-3-hydroxy-4-methyl-1-octen-6-ynyl)-1Hcyclopenta[b]benzofuran-5-butanoic acid, monosodium salt]
Listed as CT01681, monosodium salt
  Cytokine production versus control group: lower undesired cytokine production
Monosodium salt
  Cytokine production versus control group: superior to dexamethasone

Reference: patent publication US20230242679A1, “BISPECIFIC ANTIBODY THERAPIES” (priority 2022, published 2023)
